In paper PMC8006714 (Chemical Communications (Cambridge, England), 2021):

Assays:
SARS-CoV-2 M^pro [1] = molecular target: T1, SARS-CoV-2 M^pro (Severe acute respiratory syndrome coronavirus 2, UniProt P0DTD1)
SARS-CoV-2 M^pro [2] = molecular target: T1, SARS-CoV-2 M^pro; experiment: biochemical; conditions: read-out: % Mpro inhibition at 20 µM

| Structure (SMILES) | % Mpro inhibition at 20 µM (SARS-CoV-2 M^pro [1]) | inhibition at 20 µM (SARS-CoV-2 M^pro [2]) |
| --- | --- | --- |
| CN1CCc2cccc3c2[C@H]1Cc1ccc(O)c(O)c1-3 [Apomorphine hydrochloride hemihydrate] | 100.0% | – |
| CN1CCc2cccc3c2[C@H]1Cc1ccc(O)c(O)c1-3 [Apomorphine hydrochloride] | – | 97% |
| C[C@@H](O)[C@H]1C(=O)N2C(C(=O)O)=C(SCCN=CN)C[C@H]12 [Imipenem monohydrate] | – | 12.4% |

Where a name gives a salt, the structure may show the parent alone.
